{"sequences": {"note": "The chains behind the UniProt entries cited, without tags or fusion partners. Residues count along the entry.", "UniProt P00433, 31-338": "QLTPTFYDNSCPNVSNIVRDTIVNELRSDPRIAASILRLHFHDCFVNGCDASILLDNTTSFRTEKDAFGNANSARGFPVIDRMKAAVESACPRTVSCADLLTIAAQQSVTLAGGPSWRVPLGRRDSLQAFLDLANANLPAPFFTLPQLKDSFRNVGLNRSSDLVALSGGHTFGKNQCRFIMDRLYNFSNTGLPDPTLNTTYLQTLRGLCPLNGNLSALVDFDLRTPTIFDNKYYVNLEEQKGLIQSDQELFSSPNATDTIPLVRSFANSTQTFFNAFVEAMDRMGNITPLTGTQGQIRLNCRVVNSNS"}, "source": "patent US20170360875A1", "about": "(priority 2014, published 2017)", "molecular_target": "preformed immune complex of peroxidase-rabbit anti-peroxidase IgG (PAP complex) (horseradish) (UniProt P00433)", "assay": "reverse ELISA; PAP IC pre-incubated with soluble human C1q, then on C1q-coated plate; residual OD, lower = more inhibition", "data": [{"substance": "human C1q (Quidel Corp.) (from UniProt P02745 23-245; P02746 28-253; P02747 29-245)", "values": [{"measurement": "OD 405 nm", "result": 0.337, "unit": "OD 405 nm"}]}]}
